{"source": "patent US20250032527A1", "about": "“MEDICAL USE OF N4-HYDROXY CITICOLINE COMPOUNDS” (IMMUNIC AG, priority 2021, published 2025)", "key": {"[1]": {"test_system": "influenza A (H1N1, California/07/2009)"}, "[2]": {"test_system": "respiratory syncytial virus (RSV) A2"}, "[3]": {"test_system": "human rhinovirus 14 (HRV-14)"}, "SARS-COV-2": {"test_system": "SARS-COV-2", "assay_type": "cell-based"}}, "data": [{"smiles": "C[N+](C)(C)CCOP(=O)([O-])OP(=O)([O-])OC[C@H]1O[C@@H](n2ccc(NO)nc2=O)[C@H](O)[C@@H]1O.[Na+]", "note": "[Example 1, 2-(((((((2R,3S,4R,5R)-3,4-Dihydroxy-5-(4-(hydroxyamino)-2-oxopyrimidin-1 (2H)-yl)tetrahydrofuran-2-yl)methoxy) (hydroxy)phosphoryl)oxy)oxidophosphoryl)oxy)-N,N,N-trimethylethan-1-aminium mono sodium salt]", "values": [{"measurement": "SI", "setting": "[1]", "result": 5.2}, {"measurement": "SI", "setting": "[2]", "result": 2.2}, {"measurement": "SI", "setting": "[3]", "result": ">5.8"}, {"measurement": "SI", "setting": "SARS-COV-2", "result": ">10"}]}]}
